# Data reported in PubChem BioAssay (Tox21).
# Values joined by “and” are separate entries in the source; they are usually repeats but may differ in a detail not shown here. Equal entries are not always repeated. This is a selection; strong and weak results do not stand in their true shares. Active and inactive are the calls of the source. Calls come from the whole dose curve; as a rule, active = well fitted curve in the direction sought with a large enough effect in the repeat runs; inconclusive = weak or mixed curves; inactive = flat fitted curve, though single readings scatter.
# Assay: qHTS assay to test for compound auto fluorescence at 535 nm (green) in HEK293 cell free culture (AID 720682)
# Details: cell-free medium, green autofluorescence 485/535 nm, active compounds read high; at 91.3 µM (top of the series) unless noted
# Text: U.S. Tox21 Program National Center for Advancing Translational Sciences [NCATS] NIH Chemical Genomics Center [NCGC] U.S. Environmental Protection Agency [EPA] National Institutes of Environmental Health Sciences [NIEHS] National Toxicology Program [NTP] U.S. Food and Drug Administration [FDA] Tox21 Assay Overview: Compound auto fluorescence often interferes with screening of the compound library against various biological targets and signaling pathways. Some of these compounds may have fluorophoric properties. Such properties may interfere with the assay outputs resulting in false positives and/or negatives. To decrease such complications and ensure the compound activities are relevant in terms of biological response, the Tox21 10K compound library was screened for auto fluorescence. From the fluorophores used as reporter signals in our screening assays, the auto fluorescence equivalencies of compounds against three fluorophores have been evaluated: Triamterene, Fluorescein and Rose Bengal sodium for blue, green and red fluorescence, respectively. The fluorescence intensities were measured using Excitation/Emission wavelengths at 405/460nm, 485/535nm and 540/590nm for blue, green and red labels, respectively. This assay includes the green fluorescence data.
# Tox21 Assay Protocol Summary: 5 uL of culture medium (DMEM containing 10% FBS) per well was dispensed into black wall/clear bottom 1536-well plates using a Multidrop Combi Dispenser (ThermoFisher Scientific, Waltham, MA). After 23 nL compound or DMSO vehicle was transferred into assay plate by a pintool work station (Kalypsys, San Diego, CA), fluorescence intensities in the assay plates were measured by an Envision (PerkinElmer, Shelton, CT) plate reader using three labels for measuring blue, green and red fluorescence at […] 460, 535 and 590nm respectively.
# % is set by controls: 0 for no effect and ±100 for the full control effect.
row,Structure (SMILES),activity change
1,O=[p+]1oc2ccccc2c2ccccc21 (stereo not drawn),inactive: 0.0229%
2,CCNC(C)Cc1ccc2c(c1)OCO2 (stereo not drawn),inactive: -0.0076% [at 95.7 µM]
3,O=[As]c1ccccc1 (stereo not drawn),inactive: -0.0111%
4,COC(=O)Cl,inactive: -0.0127%
5,Cc1cc([N+](=O)[O-])c(O)c([N+](=O)[O-])c1,inactive: -0.494%
6,CC(C)OP(=S)(OC(C)C)SCCNS(=O)(=O)c1ccccc1,inactive: 0.0321%
7,O=P(Cl)(Cl)c1ccccc1,inactive: 0.0578%
8,Cc1cc([N+](=O)[O-])cc([N+](=O)[O-])c1O,inactive: -0.112% and inactive: -0.29%
9,O=[N+]([O-])c1ccc(S(=O)(=O)O)c([N+](=O)[O-])c1,inactive: 0.035%
10,COP(=S)(Cl)OC,inactive: -0.236%
11,O=C1C2CC=CCC2C(=O)N1SC(Cl)(Cl)C(Cl)Cl (stereo not drawn),inactive: -0.0102% and inactive: 0.013%
12,CCOP(=S)(CC)Sc1ccccc1 (stereo not drawn),inactive: -0.0022%
13,CCCCO[P+](=O)OCCCC,inactive: 0.0442% and inactive: 0.041%
14,CCCCC(CC)CO[P+](=O)OCC(CC)CCCC (stereo not drawn),inactive: -0.0039%
15,CCOC(=O)Cl,inactive: 0.0763%
16,N#CSc1ccc([N+](=O)[O-])cc1[N+](=O)[O-],inactive: -0.0479%
17,CN(C(=O)Cc1cccc2occc12)[C@H]1CC[C@@]2(CCCO2)C[C@@H]1N1CCCC1,inactive: 0.0971%
18,ClP(Cl)c1ccccc1,inactive: -0.051%
19,CCCCCCCCCCCCCC[P+](CCCCCC)(CCCCCC)CCCCCC,inactive: -0.0518%
20,O=C(OC1CN2CCC1CC2)c1ccccc1 (stereo not drawn),inactive: 0.0402% [at 46 µM]
21,CC(C)CCCCCCCOP(OCCCCCCCC(C)C)Oc1ccccc1,inactive: -0.0339%
22,CN(C(=O)Cc1ccc(Cl)c(Cl)c1)[C@H]1CC[C@@]2(CCCO2)C[C@@H]1N1CCCC1,inactive: 0.12% [at 46 µM]
23,CN(C(=O)Cc1ccccc1)[C@H]1CC[C@@]2(CCCO2)C[C@@H]1N1CCCC1,inactive: 0.0245% [at 46 µM]
24,O=[P+](Oc1ccccc1)Oc1ccccc1,inactive: -0.0151%
25,O=P(Cl)(Oc1ccccc1)Oc1ccccc1,inactive: -0.0131%
26,CN(N=O)C(=N)N[N+](=O)[O-],inactive: -0.0225%

# Same assay, conditions: cell-free medium, green autofluorescence 485/535 nm; at 46 µM (top of the series); active compounds read high
row,Structure (SMILES),activity change
1,NC(=O)Nc1ccc([As](=O)(O)O)cc1,inactive: -0.383%

# Same assay, conditions: cell-free medium, green autofluorescence 485/535 nm; at 91.3 µM (top of the series); active compounds read high
row,Structure (SMILES),activity change
1,NC(=O)Nc1ccc([As](=O)(O)O)cc1,inactive: 0.0191%
